Data published in patent US8242117B2, “5-membered heterocycle-based p38 kinase inhibitors” (Novartis AG, priority 2003, dated 2012).

The chains behind the UniProt entries cited, without tags or fusion partners.
UniProt Q16539, whole entry: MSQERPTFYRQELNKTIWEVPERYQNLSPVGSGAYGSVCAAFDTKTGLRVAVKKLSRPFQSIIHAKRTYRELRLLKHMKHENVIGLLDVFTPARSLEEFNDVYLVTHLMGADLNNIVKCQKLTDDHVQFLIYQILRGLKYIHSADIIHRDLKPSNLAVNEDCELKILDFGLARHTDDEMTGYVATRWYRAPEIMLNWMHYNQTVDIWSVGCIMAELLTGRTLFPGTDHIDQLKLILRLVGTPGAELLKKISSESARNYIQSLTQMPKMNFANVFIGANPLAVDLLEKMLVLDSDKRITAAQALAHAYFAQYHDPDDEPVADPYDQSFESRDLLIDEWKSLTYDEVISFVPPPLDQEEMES

Target: p38α kinase (Homo sapiens, UniProt Q16539)
Assay: p38α assay (ADP release coupled to NADH oxidation)
Settings: read-out: p38α IC50; 60 min preincubation, 0.15 mM ATP, 20 nM p38α kinase
Experimental: cDNAs of human p38α and β were cloned by PCR. The α and β cDNAs were subcloned into DEST2 plasmid (Gateway, InVitrogen). His6-p38 fusion protein was expressed in E. coli and purified from bacterial lysates by affinity chromatography using Ni^+2-NTA-agarose. His6-p38 protein was activated by incubating with constitutively active MKK6. Active p38 was separated from MKK6 by affinity chromatography. Constitutively active MKK6 was generated in a manner similar to Raingeaud et al. [Mol. Cell. Biol., 1247-1255 (1996)].
The p38α assay employed is based on measurement of ADP released in the reaction of interest through NADH oxidation obtained by coupling with pyruvate kinase and lactate dehydrogenase reactions. The assays were performed in 384-well UV-plates. The final volume was 25 μL prepared from the addition of 2.5 μL compound dissolved in 10% DMSO, 17.5 μL of assay buffer and 5 μL of ATP. […] Reaction rates were measured at 340 nm using SpectraMax plate-reading spectrophotometer for 10 min at 37° C. Inhibition data were analyzed by non-linear least-squares regression using SigmaPlot.

Structure (SMILES) | IC50 [nM]
Cc1ccc(C(=O)NC2CC2)cc1-n1ncc(C(=O)Nc2ccccc2)c1N | < 1000
Cc1ccc(C(=O)NC2CC2)cc1-n1ncc(C(=O)NCC(C)(C)C)c1N | < 1000
